Molecular target: epidermal growth factor receptor (EGFR) (Homo sapiens, UniProt P00533)

Q: How did the “EGFR autophosphorylation in A431 cells at 30 μM, before and after washout (Weste)” value turn out when `CN/N=N/c1ccc2ncnc(Nc3cccc(Br)c3)c2c1` [ZR08] was run?
A: irreversible inhibition was observed in cells exposed to the daughter molecules, RB14 and ZR08

Source: publication PMC2747684, “Sustained antiproliferative mechanisms by RB24, a targeted precursor of multiple inhibitors of epidermal growth factor receptor and a DNA alkylating agent in the A431 epidermal carcinoma of the vulva cell line” (British Journal of Cancer, 2004)
